The chains behind the UniProt entries cited, without tags or fusion partners. Where a name states a change or a piece, a line headed by the entry shows the natural chain unless it says otherwise.
UniProt Q9NYV4, whole entry, looked up: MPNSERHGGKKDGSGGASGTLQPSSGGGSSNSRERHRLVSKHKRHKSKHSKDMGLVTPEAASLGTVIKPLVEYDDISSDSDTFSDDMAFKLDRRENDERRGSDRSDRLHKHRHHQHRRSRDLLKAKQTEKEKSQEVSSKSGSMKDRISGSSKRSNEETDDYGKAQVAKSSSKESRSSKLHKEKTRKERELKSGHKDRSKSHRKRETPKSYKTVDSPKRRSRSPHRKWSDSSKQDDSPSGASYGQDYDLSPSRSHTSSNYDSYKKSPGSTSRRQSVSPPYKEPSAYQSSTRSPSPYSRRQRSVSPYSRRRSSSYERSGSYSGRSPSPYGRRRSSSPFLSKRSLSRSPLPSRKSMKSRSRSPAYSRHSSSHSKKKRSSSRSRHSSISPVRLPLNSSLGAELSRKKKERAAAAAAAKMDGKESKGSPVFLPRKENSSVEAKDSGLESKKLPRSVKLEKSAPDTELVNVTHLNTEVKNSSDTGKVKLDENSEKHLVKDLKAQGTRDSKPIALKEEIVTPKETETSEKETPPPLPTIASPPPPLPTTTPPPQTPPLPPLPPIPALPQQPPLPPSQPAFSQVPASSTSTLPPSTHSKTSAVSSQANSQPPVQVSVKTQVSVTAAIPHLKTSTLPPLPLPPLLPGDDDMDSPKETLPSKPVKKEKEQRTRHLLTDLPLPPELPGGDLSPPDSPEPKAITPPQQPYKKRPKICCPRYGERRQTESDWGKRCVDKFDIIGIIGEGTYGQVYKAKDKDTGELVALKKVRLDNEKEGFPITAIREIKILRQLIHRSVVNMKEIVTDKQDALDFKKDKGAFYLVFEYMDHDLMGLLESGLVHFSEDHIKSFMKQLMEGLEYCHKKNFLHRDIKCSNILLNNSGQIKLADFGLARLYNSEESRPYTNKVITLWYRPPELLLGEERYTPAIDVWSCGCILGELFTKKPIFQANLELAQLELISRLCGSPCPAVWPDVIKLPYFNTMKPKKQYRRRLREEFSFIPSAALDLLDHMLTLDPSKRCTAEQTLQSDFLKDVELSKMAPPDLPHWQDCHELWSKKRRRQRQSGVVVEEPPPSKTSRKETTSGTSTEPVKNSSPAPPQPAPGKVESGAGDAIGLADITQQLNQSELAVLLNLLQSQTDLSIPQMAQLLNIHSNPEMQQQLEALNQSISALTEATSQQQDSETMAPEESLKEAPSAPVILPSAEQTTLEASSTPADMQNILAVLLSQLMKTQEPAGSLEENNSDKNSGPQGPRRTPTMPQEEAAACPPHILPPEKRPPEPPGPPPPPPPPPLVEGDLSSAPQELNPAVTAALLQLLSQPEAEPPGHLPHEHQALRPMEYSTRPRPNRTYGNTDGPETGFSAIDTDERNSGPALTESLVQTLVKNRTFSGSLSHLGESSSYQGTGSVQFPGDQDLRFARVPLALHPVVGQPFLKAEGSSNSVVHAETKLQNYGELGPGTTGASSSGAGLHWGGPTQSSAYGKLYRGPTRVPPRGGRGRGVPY
UniProt Q08345: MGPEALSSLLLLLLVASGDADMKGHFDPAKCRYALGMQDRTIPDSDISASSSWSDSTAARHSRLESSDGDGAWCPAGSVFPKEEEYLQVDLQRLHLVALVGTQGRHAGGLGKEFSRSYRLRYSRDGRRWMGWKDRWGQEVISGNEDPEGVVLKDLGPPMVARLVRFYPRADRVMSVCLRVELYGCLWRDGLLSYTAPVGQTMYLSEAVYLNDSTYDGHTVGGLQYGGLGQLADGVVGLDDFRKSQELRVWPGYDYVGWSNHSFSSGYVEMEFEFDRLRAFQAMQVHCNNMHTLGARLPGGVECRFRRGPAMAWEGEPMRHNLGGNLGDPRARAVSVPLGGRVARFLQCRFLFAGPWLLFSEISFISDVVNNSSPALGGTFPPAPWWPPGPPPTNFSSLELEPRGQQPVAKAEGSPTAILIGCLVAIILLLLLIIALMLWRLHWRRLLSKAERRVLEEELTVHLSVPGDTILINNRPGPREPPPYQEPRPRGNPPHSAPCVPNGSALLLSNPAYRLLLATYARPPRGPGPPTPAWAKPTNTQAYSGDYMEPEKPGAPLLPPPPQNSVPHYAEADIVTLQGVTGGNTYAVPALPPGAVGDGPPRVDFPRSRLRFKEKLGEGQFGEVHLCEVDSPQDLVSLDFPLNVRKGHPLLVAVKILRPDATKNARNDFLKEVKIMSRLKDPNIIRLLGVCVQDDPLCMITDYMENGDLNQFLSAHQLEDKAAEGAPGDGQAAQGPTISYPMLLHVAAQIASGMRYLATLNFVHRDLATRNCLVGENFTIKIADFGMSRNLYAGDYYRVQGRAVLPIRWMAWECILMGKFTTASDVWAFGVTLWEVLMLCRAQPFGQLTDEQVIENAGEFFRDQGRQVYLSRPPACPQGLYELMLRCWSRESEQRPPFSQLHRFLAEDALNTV
UniProt P06239: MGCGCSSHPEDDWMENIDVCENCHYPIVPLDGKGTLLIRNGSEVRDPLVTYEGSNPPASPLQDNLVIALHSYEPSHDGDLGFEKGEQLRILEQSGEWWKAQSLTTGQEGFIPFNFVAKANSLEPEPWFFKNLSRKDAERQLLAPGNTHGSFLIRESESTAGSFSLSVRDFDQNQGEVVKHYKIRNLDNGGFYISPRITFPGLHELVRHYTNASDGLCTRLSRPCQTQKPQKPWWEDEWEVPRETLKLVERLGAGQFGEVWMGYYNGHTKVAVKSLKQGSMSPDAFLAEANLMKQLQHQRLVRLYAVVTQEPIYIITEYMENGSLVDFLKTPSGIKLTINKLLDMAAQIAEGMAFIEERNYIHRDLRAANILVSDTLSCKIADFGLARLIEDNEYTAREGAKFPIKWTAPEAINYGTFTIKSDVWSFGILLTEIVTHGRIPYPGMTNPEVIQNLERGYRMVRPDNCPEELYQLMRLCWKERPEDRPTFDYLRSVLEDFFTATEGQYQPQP
UniProt O75116: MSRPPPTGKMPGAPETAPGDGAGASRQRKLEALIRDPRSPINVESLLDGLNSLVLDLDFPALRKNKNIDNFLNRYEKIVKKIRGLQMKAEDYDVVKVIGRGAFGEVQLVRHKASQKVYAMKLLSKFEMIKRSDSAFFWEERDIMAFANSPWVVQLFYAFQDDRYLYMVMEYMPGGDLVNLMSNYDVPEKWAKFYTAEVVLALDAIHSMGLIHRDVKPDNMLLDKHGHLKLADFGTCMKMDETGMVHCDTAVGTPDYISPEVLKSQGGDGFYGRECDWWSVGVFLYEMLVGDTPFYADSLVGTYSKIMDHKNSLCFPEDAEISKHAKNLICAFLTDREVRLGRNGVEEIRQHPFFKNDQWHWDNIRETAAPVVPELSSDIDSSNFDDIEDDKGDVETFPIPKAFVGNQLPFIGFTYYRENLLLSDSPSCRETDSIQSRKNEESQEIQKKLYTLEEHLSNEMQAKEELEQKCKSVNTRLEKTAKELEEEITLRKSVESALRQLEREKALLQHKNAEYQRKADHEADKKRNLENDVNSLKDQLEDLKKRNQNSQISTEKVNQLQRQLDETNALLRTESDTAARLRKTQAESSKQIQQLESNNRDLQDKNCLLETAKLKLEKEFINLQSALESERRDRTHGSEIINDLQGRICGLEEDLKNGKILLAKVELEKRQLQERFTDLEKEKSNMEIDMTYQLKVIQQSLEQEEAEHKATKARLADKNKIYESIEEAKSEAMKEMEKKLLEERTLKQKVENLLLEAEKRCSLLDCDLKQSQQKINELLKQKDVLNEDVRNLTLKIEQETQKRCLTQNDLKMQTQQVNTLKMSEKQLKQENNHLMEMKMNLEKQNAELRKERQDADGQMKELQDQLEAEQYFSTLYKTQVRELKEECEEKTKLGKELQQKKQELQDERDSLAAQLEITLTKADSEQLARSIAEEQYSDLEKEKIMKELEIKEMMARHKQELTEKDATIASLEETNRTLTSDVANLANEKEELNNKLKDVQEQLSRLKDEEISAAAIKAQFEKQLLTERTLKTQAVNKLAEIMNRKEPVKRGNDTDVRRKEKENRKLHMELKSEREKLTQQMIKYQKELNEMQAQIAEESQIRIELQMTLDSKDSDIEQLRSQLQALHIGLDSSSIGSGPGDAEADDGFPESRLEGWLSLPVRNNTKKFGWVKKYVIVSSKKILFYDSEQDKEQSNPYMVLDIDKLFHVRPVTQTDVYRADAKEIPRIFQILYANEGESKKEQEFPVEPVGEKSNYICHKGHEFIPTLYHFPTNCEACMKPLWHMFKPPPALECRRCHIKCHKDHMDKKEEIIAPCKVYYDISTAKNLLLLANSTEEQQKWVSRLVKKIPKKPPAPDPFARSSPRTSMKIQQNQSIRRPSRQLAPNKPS

According to the supplement of paper PMC11403291:

Assays:
Test in all cases: apparent dissociation constant pKd app (kinobead competition) (-log10(M)); higher = stronger binding
CRKRS = CRKRS (UniProt Q9NYV4)
TTK = molecular target: T1, TTK (UniProt P33981)
T1 sequence (whole entry): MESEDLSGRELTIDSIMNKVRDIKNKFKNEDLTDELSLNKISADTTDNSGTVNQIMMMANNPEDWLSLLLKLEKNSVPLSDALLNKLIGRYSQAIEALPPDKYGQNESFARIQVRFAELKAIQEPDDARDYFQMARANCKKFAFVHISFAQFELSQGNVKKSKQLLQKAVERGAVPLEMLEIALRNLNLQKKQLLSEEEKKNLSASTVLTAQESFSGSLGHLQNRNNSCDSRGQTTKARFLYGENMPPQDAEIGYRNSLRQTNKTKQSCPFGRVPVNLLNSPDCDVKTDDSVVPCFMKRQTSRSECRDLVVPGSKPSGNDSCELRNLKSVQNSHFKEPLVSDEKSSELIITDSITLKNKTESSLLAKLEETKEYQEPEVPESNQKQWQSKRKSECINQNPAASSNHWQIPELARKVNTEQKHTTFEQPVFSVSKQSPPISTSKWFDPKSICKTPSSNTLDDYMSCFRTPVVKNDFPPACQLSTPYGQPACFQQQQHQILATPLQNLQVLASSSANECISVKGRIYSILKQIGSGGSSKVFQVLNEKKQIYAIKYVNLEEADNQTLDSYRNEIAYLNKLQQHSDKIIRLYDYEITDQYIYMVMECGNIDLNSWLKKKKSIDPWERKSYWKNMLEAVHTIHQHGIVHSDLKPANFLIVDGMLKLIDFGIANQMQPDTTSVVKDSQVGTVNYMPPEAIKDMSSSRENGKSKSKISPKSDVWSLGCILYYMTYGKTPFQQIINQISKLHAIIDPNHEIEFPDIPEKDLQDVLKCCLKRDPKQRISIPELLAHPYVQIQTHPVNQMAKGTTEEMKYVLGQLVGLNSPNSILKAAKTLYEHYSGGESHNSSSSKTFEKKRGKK

DDR1 = DDR1 (UniProt Q08345)
MAP3K5 = molecular target: T2, MAP3K5 (UniProt Q99683)
T2 sequence (whole entry): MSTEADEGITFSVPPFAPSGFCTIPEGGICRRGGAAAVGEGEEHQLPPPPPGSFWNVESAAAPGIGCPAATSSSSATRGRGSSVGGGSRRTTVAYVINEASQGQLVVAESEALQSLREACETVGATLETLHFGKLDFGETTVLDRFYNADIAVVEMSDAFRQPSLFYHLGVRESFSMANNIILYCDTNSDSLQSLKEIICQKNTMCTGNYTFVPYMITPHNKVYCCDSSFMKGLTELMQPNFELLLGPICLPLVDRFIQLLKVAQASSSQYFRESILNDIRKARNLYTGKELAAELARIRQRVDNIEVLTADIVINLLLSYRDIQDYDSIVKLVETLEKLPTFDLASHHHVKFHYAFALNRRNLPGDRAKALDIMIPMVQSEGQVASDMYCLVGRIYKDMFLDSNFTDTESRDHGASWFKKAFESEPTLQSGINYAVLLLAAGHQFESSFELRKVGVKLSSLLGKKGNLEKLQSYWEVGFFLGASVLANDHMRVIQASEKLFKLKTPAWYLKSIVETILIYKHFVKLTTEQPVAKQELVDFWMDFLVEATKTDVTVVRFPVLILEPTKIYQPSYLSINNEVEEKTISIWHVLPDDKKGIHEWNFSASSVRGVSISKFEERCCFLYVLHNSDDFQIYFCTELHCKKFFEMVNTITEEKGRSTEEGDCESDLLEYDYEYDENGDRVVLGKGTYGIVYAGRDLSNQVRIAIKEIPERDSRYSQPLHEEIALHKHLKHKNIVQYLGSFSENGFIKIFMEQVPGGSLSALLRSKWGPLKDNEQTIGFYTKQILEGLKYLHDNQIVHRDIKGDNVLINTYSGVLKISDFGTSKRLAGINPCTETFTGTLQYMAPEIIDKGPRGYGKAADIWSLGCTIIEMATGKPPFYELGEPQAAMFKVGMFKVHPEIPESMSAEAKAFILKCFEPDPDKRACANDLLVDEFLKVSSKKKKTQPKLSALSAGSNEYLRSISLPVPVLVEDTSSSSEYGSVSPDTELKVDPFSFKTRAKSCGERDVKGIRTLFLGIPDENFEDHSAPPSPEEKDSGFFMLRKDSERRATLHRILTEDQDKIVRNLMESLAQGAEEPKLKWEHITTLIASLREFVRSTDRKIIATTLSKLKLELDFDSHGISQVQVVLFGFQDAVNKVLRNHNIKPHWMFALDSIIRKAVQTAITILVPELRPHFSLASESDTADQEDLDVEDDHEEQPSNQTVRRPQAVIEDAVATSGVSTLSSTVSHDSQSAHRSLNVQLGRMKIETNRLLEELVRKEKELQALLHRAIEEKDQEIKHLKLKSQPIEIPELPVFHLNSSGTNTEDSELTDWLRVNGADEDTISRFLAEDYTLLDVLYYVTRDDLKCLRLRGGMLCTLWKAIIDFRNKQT

STK39 = STK39 (UniProt Q9UEW8)
LCK = LCK (UniProt P06239)
ROCK2 = ROCK2 (UniProt O75116)

NC(=O)c1cccc2cn(-c3ccc([C@@H]4CCCNC4)cc3)nc12 [Niraparib]
apparent dissociation constant pKd app (-log10) (CRKRS): < 4.5
apparent dissociation constant pKd app (-log10) (TTK): < 4.5
apparent dissociation constant pKd app (-log10) (DDR1): < 4.6
apparent dissociation constant pKd app (-log10) (MAP3K5): < 4.6
apparent dissociation constant pKd app (-log10) (STK39): < 4.5
apparent dissociation constant pKd app (-log10) (LCK): < 4.8
apparent dissociation constant pKd app (-log10) (ROCK2): < 4.5

O=C(c1cc(Cc2n[nH]c(=O)c3ccccc23)ccc1F)N1CCN(C(=O)C2CC2)CC1 [Olaparib]
apparent dissociation constant pKd app (-log10) (CRKRS): < 4.5
apparent dissociation constant pKd app (-log10) (TTK): < 4.5
apparent dissociation constant pKd app (-log10) (DDR1): < 4.6
apparent dissociation constant pKd app (-log10) (MAP3K5): < 4.6
apparent dissociation constant pKd app (-log10) (STK39): < 4.5
apparent dissociation constant pKd app (-log10) (LCK): < 4.8
apparent dissociation constant pKd app (-log10) (ROCK2): < 4.5

Cn1ncnc1[C@H]1c2n[nH]c(=O)c3cc(F)cc(c23)N[C@@H]1c1ccc(F)cc1 [Talazoparib]
apparent dissociation constant pKd app (-log10) (CRKRS): < 4.5
apparent dissociation constant pKd app (-log10) (TTK): < 4.5
apparent dissociation constant pKd app (-log10) (DDR1): < 4.6
apparent dissociation constant pKd app (-log10) (MAP3K5): < 4.6
apparent dissociation constant pKd app (-log10) (STK39): < 4.5
apparent dissociation constant pKd app (-log10) (LCK): < 4.8
apparent dissociation constant pKd app (-log10) (ROCK2): < 4.5
